Laboratory results: patent US12528818B2, “Compositions and methods for inhibition of RAS” (Leidos Biomedical Research, Inc., priority 2021, dated 2026)

How the values were obtained:
[1] = biological target: Avi-KRAS G12C (1-169) GppNHp/RAF1 RBD-3xFLAG (52-151) (Homo sapiens, UniProt P01116, G12C); assay: biochemical; conditions: Raf1-GppNHp-KRAS G12C disruption, Raf1 RBD-KRAS G12C-GppNHp disruption assay IC50
[2] = biological target: T1, GTP-loaded KRAS4b (amino acids 1-169) G12C/C118S protein (Homo sapiens, UniProt P01116, C118S/G12C); assay: Covalent cysteine 12 modification by MALDI-TOF MS, GTP-loaded KRAS G12C; assay type: biochemical; conditions: 15 minutes reaction time, compound 95 or later using 1 μM proteins
T1 construct: KRAS4b (amino acids 1-169) G12C/C118S protein; made in house

[3] = biological target: GDP-loaded KRAS4b (amino acids 1-169) G12C/C118S protein (Homo sapiens, UniProt P01116, C118S/G12C); assay: Covalent cysteine 12 modification by MALDI-TOF MS, GDP-loaded KRAS G12C; assay type: biochemical; conditions: 15 minutes reaction time, compound 95 or later using 1 μM proteins
[4] = biological target: GppNHp-loaded KRAS4b (amino acids 1-169) G12C/C118S protein (Homo sapiens, UniProt P01116, C118S/G12C); assay: Covalent cysteine 12 modification by MALDI-TOF MS, GppNHp-loaded KRAS G12C; assay type: biochemical; conditions: 15 minutes reaction time, compound 95 or later using 1 μM proteins

| IC50 [1] [µM] | GTP-KRAS G12C percent of modification [2] | GDP-KRAS G12C percent of modification [3] | GppNHp-KRAS G12C percent of modification [4] | SMILES |
| --- | --- | --- | --- | --- |
| < 0.5 | B (50≤percent of modification <70%) | A (percent of modification ≥70%) | A (percent of modification ≥70%) | C=CC(=O)N1C[C@H](C)N(c2nc(OC[C@@]34CCCN3C[C@H](F)C4)nc3c(F)c(-c4ccc(F)c5sc(N)nc45)c(C(F)(F)F)cc23)C[C@H]1C (atropisomer, axis not shown) [Compound 267] |
| < 0.5 | B (50≤percent of modification <70%) | A (percent of modification ≥70%) | A (percent of modification ≥70%) | C=CC(=O)N1CCN(c2nc(OC[C@@]34CCCN3C[C@H](F)C4)nc3c(F)c(-c4ccc(F)c5sc(N)c(C#N)c45)c(C(F)(F)F)cc23)C[C@@H]1C [Compound 329] |
| < 0.5 | B (50≤percent of modification <70%) | A (percent of modification ≥70%) | A (percent of modification ≥70%) | C=CC(=O)N1C[C@H](C)N(c2nc(OCC34CCCN3CCC4)nc3c(F)c(-c4ccc(F)c5sc(N)c(C#N)c45)c(Cl)cc23)C[C@H]1C [Compound 366] |
| < 0.5 | B (50≤percent of modification <70%) | A (percent of modification ≥70%) | B (50≤percent of modification <70%) | C=CC(=O)N1CCC(N(CC)c2nc(OC[C@@H]3CCCN3C)nc3c(F)c(-c4ccc(F)c5sc(N)c(C#N)c45)c(C(F)(F)F)cc23)[C@H]1C (some centres unmarked) [Compound 396] |
| < 0.5 | A (percent of modification ≥70%) | A (percent of modification ≥70%) | A (percent of modification ≥70%) | C=CC(=O)N1CCC(N(C)c2nc(OC[C@@H]3C[C@@H](OC)CN3C)nc3c(F)c(-c4ccc(F)c5sc(N)c(C#N)c45)ccc23)[C@H]1COC (some centres unmarked) [Compound 424] |
| < 0.5 | A (percent of modification ≥70%) | A (percent of modification ≥70%) | A (percent of modification ≥70%) | C=CC(=O)N1CC[C@@H](N(C)c2nc(OC[C@@]34CCCN3C[C@H](F)C4)nc3c(F)c(-c4ccc(F)c5sc(N)nc45)c(C#N)cc23)[C@H]1C [Compound 373] |
| < 0.5 | B (50≤percent of modification <70%) | A (percent of modification ≥70%) | A (percent of modification ≥70%) | C=CC(=O)N1CCN(c2nc(OC[C@@]34CCCN3C[C@H](F)C4)nc3c(F)c(-c4ccc(F)c5sc(N)c(C#N)c45)c(C(F)(F)F)cc23)C[C@H]1C [Compound 318] |
| < 0.5 | A (percent of modification ≥70%) | A (percent of modification ≥70%) | – | C=CC(=O)N1CCC(N(C)c2nc(OC[C@@H]3C[C@@H](OC)CN3C)nc3c(F)c(-c4ccc(F)c5sc(N)c(C#N)c45)c(Cl)cc23)[C@H]1C (some centres unmarked) [Compound 450] |
| < 0.5 | A (percent of modification ≥70%) | A (percent of modification ≥70%) | – | C=CC(=O)N1CC[C@@H](N(C)c2nc(OC[C@@]34CCCN3C[C@H](F)C4)nc3c(F)c(-c4ccc(F)c5sc(N)c(C#N)c45)c(Cl)cc23)[C@H]1C [Compound 395, 4-(4-((1-acryloyl-2-methylpyrrolidin-3-yl)(methyl)amino)-6-chloro-8-fluoro-2-(((2R,7aS)-2-fluorotetrahydro-1H-pyrrolizin-7a(5H)-yl)methoxy)quinazolin-7-yl)-2-amino-7-fluorobenzo[b]thiophene-3-carbonitrile] |
| < 0.5 | A (percent of modification ≥70%) | – | – | C=CC(=O)N1CC[C@@H](N(C)c2nc(OC[C@@]34CCCN3C[C@H](F)C4)nc3c(F)c(-c4ccc(F)c5sc(N)c(C#N)c45)c(C(F)(F)F)cc23)[C@@H]1C [Compound 469] |
| < 0.5 | C (10%≤percent of modification <50%) | – | – | C=CC(=O)N1C[C@H](C)N(c2nc(OC[C@]34CCCN3C[C@@H](F)C4)nc3c(F)c(-c4ccc(F)c5sc(N)c(C#N)c45)c(C(F)(F)F)cc23)C[C@H]1C [Compound 334] |
| < 0.5 | A (percent of modification ≥70%) | A (percent of modification ≥70%) | – | C=CC(=O)N1CCC(N(CC)c2nc(OC[C@@]34CCCN3C[C@H](F)C4)nc3c(F)c(-c4ccc(F)c5sc(N)c(C#N)c45)ccc23)[C@H]1C (some centres unmarked) [Compound 421] |
| < 0.5 | B (50≤percent of modification <70%) | B (50≤percent of modification <70%) | – | C=CC(=O)N1CCC(N(C)c2nc(OC[C@@H]3C[C@@H](F)CN3C)nc3c(F)c(-c4ccc(F)c5sc(N)c(C#N)c45)c(C(F)(F)F)cc23)[C@H]1C (some centres unmarked) [Compound 399] |
| < 0.5 | C (10%≤percent of modification <50%) | B (50≤percent of modification <70%) | – | C=CC(=O)N1C[C@H](C)N(c2nc(OC[C@@]34CCCN3C[C@H](F)C4)nc3c(F)c(-c4ccc(F)c5sc(N)c(C#N)c45)c(C(F)(F)F)cc23)C[C@@H]1C [Compound 349] |
| < 0.5 | A (percent of modification ≥70%) | A (percent of modification ≥70%) | – | C=CC(=O)N1CCC(N(C)c2nc(OC[C@@H]3CCCN3C)nc3c(F)c(-c4ccc(F)c5sc(N)c(C#N)c45)c(C(F)(F)F)cc23)[C@H]1C (some centres unmarked) [Compound 400] |
| – | B (50≤percent of modification <70%) | A (percent of modification ≥70%) | A (percent of modification ≥70%) | C=CC(=O)N1CCC(N(C)c2nc(OC[C@@H]3CCCN3C)nc3cc(-c4ccc(F)c5sc(N)c(C#N)c45)c(F)cc23)[C@H]1COC (some centres unmarked) [Compound 441] |
| – | D (percent of modification <10%) | C (10%≤percent of modification <50%) | D (percent of modification <10%) | C=CC(=O)N1CCC(N(C)c2nc(OCCOC)nc3c(F)c(-c4ccc(F)c5sc(N)c(C#N)c45)ccc23)[C@H]1C (some centres unmarked) [Compound 466] |
| < 0.5 | A (percent of modification ≥70%) | A (percent of modification ≥70%) | – | C=CC(=O)N1CC[C@@H](N(C)c2nc(OC[C@@]34CCCN3C[C@H](F)C4)nc3c(F)c(-c4ccc(F)c5sc(N)c(C#N)c45)ccc23)[C@H]1C [Compound 358, 4-(4-(((2R,3R)-1-acryloyl-2-methylpyrrolidin-3-yl)(methyl)amino)-8-fluoro-2-(((2R,7aS)-2-fluorotetrahydro-1H-pyrrolizin-7a(5H)-yl)methoxy)quinazolin-7-yl)-2-amino-7-fluorobenzo[b]thiophene-3-carbonitrile] |
